Experimental data published in ChEMBL document CHEMBL5331147.

Protein sequences, listed by entry. Tags and fused reporters are not part of them. Lines headed by an entry give the natural chain unless they say otherwise; changes in a name come on top.
UniProt P28335: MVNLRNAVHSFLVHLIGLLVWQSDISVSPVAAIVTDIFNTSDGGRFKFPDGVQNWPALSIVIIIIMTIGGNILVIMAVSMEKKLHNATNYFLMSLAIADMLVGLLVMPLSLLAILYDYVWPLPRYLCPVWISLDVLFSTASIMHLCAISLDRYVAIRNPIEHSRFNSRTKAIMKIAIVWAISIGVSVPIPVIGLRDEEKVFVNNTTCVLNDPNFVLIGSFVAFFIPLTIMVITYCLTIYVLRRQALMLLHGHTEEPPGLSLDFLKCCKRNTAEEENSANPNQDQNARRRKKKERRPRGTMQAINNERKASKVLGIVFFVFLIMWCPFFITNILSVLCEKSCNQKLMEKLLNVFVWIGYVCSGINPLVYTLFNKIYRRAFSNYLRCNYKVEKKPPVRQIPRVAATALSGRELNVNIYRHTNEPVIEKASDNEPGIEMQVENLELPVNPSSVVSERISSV
UniProt P28223, whole entry: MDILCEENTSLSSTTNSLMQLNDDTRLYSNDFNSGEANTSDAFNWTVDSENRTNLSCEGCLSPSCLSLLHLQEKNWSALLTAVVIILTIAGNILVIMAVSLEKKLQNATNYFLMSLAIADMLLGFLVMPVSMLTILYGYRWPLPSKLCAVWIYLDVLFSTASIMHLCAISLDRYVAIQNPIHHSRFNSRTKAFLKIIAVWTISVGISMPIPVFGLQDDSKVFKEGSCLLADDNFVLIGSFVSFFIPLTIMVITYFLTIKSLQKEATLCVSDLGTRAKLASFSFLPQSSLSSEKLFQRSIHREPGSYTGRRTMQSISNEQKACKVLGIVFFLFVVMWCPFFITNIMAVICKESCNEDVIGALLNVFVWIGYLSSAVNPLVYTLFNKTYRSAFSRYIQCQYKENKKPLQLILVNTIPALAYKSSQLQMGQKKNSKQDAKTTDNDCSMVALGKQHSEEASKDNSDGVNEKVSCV
UniProt P41595, whole entry: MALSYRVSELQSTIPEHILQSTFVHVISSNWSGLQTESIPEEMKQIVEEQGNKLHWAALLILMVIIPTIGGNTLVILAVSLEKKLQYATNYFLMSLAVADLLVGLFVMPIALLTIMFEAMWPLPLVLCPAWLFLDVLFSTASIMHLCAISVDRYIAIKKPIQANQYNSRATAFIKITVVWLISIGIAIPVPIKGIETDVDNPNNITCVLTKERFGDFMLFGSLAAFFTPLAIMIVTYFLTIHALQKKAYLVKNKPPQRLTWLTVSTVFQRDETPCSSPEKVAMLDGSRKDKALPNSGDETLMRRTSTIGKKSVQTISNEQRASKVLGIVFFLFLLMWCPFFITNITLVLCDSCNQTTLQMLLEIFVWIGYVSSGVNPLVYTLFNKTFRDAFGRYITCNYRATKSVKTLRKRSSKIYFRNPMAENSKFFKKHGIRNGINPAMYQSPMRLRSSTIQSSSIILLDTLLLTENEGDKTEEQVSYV

What was measured:
[1] = target: 5-hydroxytryptamine receptor 2C (Homo sapiens) (UniProt P28335); settings: CHO, dose 1.0 nM, time 15.0 min
[2] = target: 5-hydroxytryptamine receptor 2A (Homo sapiens) (UniProt P28223); settings: CHO, filed as positive allosteric modulator, dose 1.0 nM, time 15.0 min
[3] = target: 5-hydroxytryptamine receptor 2B (Homo sapiens) (UniProt P41595); settings: CHO, filed as positive allosteric modulator, dose 1.0 nM, time 15.0 min
[4] = filed as positive allosteric modulator

SMILES: CCCCCCCC/C=C\CCCCCCCC(=O)N[C@@H](Cc1ccc(O)cc1)C(=O)O
- Emax [1, 4]: 107%

SMILES: CCCCCCCC/C=C\CCCCCCCC(=O)NCCN1CCOCC1
- Emax [2]: 106%
- Emax [1, 4]: 121%

SMILES: CCCCCCCC/C=C\CCCCCCCC(=O)NCCOCCO
- Emax [2]: 99.6%
- Emax [1, 4]: 106%

SMILES: CCCCCCCC/C=C\CCCCCCCC(=O)N[C@@H](Cc1c[nH]c2ccccc12)C(=O)O
- Emax [1, 4]: 117%

SMILES: CCCCCCCC/C=C\CCCCCCCC(=O)N[C@@H](CO)C(=O)O
- Emax [1, 4]: 118%

SMILES: CCCCCCCC/C=C\CCCCCCCC(=O)NCC(OCC)OCC
- Emax [1, 4]: 111%

SMILES: CCCCCCCC/C=C\CCCCCCCC(=O)NC(CO)CO
- Emax [3]: 97.2%
- Emax [2]: 119%
- Emax [1, 4]: 144%

SMILES: CCCCCCCC/C=C\CCCCCCCC(=O)N[C@H](CO)[C@H](O)c1ccccc1
- Emax [3]: 92.4%
- Emax [2]: 98.8%
- Emax [1, 4]: 126%

SMILES: CCCCCCCC/C=C\CCCCCCCC(=O)N[C@@H](CO)C(=O)OC
- Emax [1, 4]: 127%

SMILES: CCCCCCCC/C=C\CCCCCCCC(=O)NCCCO
- Emax [3]: 95.6%
- Emax [2]: 99.2%
- Emax [1, 4]: 126%

SMILES: CCCCCCCC/C=C\CCCCCCCC(=O)NCCCCNC(=O)OC(C)(C)C
- Emax [1, 4]: 118%

SMILES: CCCCCCCC/C=C\CCCCCCCC(=O)NCC1CCN(C(=O)OC(C)(C)C)CC1
- Emax ([1]; filed as negative allosteric modulator): 92.9%

SMILES: CCCCCCCC/C=C\CCCCCCCC(=O)NCc1ccc(O)cc1
- Emax [1, 4]: 112%

SMILES: CCCCCCCC/C=C\CCCCCCCC(=O)NCC(O)CO (centres undefined)
- Emax [1, 4]: 108%

SMILES: CCCCCCCC/C=C\CCCCCCCC(=O)NC[C@H](O)CO
- Emax [1, 4]: 100%

SMILES: CCCCCCCC/C=C\CCCCCCCC(=O)N[C@@H](Cc1c[nH]c2ccccc12)C(=O)OC
- Emax [2]: 106%
- Emax [1, 4]: 125%

SMILES: CCCCCCCC/C=C\CCCCCCCC(=O)N[C@H](C(=O)O)[C@H](C)O
- Emax [1, 4]: 112%

SMILES: CCCCCCCC/C=C\CCCCCCCC(=O)NCCc1ccc(O)cc1
- Emax [1, 4]: 116%

SMILES: CCCCCCCC/C=C\CCCCCCCC(=O)NCc1ccc(O)c(O)c1
- Emax [3]: 101%
- Emax [2]: 102%
- Emax [1, 4]: 123%

SMILES: CCCCCCCC/C=C\CCCCCCCC(=O)N[C@H](C(=O)OC)[C@H](C)O
- Emax [2]: 109%
- Emax [1, 4]: 110%

SMILES: CCCCCCCC/C=C\CCCCCCCC(=O)N[C@@H](Cc1ccc(O)cc1)C(=O)OC
- Emax [1, 4]: 128%

SMILES: CCCCCCCC/C=C\CCCCCCCC(=O)NCCc1ccc(O)c(O)c1
- Emax [1, 4]: 121%
